## Yeast mating assay 2: variants of the scFv Ab-95

Target: peptide PDVDLGDISGINAS, taken from heptad repeat 2 (HR2) of SARS-CoV-2 spike.

Parent scFv Ab-95: VH joined to VL by a (GGGGS)3 linker. Changes lie in the light chain CDRs alone.
VH: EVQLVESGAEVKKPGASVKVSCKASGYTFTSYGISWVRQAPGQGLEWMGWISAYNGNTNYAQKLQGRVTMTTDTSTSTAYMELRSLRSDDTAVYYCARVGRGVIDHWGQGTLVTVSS
VL: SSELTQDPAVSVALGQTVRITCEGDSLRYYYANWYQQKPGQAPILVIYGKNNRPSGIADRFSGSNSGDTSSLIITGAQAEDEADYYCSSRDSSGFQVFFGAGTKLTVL

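The parent was found by panning a naive human phage display library on the peptide. AAYL52 was designed without a model: most single CDR substitutions and a random sample of double and triple ones. In AlphaSeq, yeast of one mating type display the scFv and yeast of the other type display the target. Mating (16 h, 30 °C) was followed by selection of diploids and sequencing of their barcodes. The ratio of observed to expected reads was calibrated, replicate by replicate, on BCL2-family standards whose Kd was known from biolayer interferometry. There are three technical replicates.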

Positions count from residue 1 of the parent VL; Y30Q puts Q in place of Y. The read-out is the apparent dissociation constant on a log10 scale (nM): the lower, the stronger. Replicates are averaged; those with no signal do not enter the mean. An entry "no signal" has no value in the source: the pair was not observed among the diploids in any replicate. This suggests poor binding but is not conclusive. Entries are sorted by rising average, undetected variants last. Nonspecific signal, from three strains lacking the peptide, appeared in 28% of pairings of library AAYL52, centred on 3.91 (5% of these signals below 2.90); values are not corrected for it.

changes | log10 Kd (nM), mean | detected
Y30Q G94I F98H | 0.92 | 3/3
E23C R28V P54T | 0.94 | 3/3
Y30S S93R | 1.23 | 3/3
Y31N N52W S92I | 1.44 | 3/3
K50E S89E | 1.50 | 3/3
Y31Q N51G G94V | 1.62 | 3/3
Y29P Y31A S55D | 1.64 | 3/3
Y30P Y31Q G94P | 1.68 | 3/3
E23C Y30F N51S | 2.00 | 3/3
E23G S88Q Q96P | 2.00 | 3/3
D91Y G94K V97Y | 2.13 | 3/3
D25V S93Y Q96A | 2.15 | 3/3
E23S S89D S92T | 2.18 | 3/3
Y31P R90W G94H | 2.21 | 3/3
E23S A32Q S92R | 2.31 | 3/3
S88P S92C Q96A | 2.39 | 3/3
E23T K50E V97H | 2.58 | 1/3
R28W R53C P54Q | 2.61 | 3/3
S26G A32P V97C | 2.62 | 3/3
S26A R28H S93V | 2.75 | 3/3
S55D D91M V97M | 2.78 | 3/3
S26D D91C F95R | 2.92 | 3/3
E23H G24L N52G | 2.95 | 3/3
G24D Y30F R53E | 2.97 | 3/3
S26L K50T S93C | 3.04 | 2/3
A32R N33P Q96R | 3.17 | 1/3
D25I R90N S92P | 3.18 | 1/3
S55Y R90D D91W | 3.18 | 2/3
D25S L27F Y29F | 3.21 | 3/3
D25I S89T S93G | 3.29 | 3/3
E23W N33E N52M | 3.29 | 3/3
N51H S55I G94T | 3.30 | 2/3
S92A F95H V97Y | 3.31 | 2/3
D25R Q96K V97S | 3.31 | 2/3
S26Q R28S R90D | 3.48 | 1/3
E23M S26Q | 3.55 | 3/3
S26L S55W R90L | 3.55 | 2/3
S89P R90G D91T | 3.55 | 3/3
N51P D91V F98I | 3.63 | 3/3
A32L D91S | 3.65 | 2/3
R28N Y29V | 3.71 | 3/3
Y30R N51Y R90D | 3.76 | 3/3
K50Q N51T S92G | 3.78 | 2/3
Y29N R53M S88H | 3.92 | 1/3
S26W R28M R53D | 3.95 | 2/3
R28S K50M S89Q | 4.00 | 3/3
Y29R R53P D91A | 4.02 | 2/3
L27S S92R G94T | 4.20 | 2/3
D25Y L27R K50W | 4.46 | 1/3
N33S G49H S89D | 4.52 | 1/3
G49C N51R F98R | 4.55 | 3/3
G24T A32C S92E | 4.55 | 1/3
L27N K50Q G94W | 4.63 | 1/3
Y30L G49M P54V | 4.70 | 2/3
G49T N52Y R90S | 4.73 | 2/3
A32P N33P G49N | 4.81 | 2/3
G49T G94E F95A | 4.85 | 2/3
Y29P R53K F98N | 4.91 | 1/3
L27C N33T S88G | 5.06 | 2/3
L27I A32I N33D | 5.20 | 1/3
Y31Q N33P R53A | 5.21 | 2/3
G24R S26V R53A | 5.23 | 1/3
S26V A32N P54D | 5.32 | 1/3
L27K G49R S93C | 5.58 | 1/3
G24P Y30H Q96G | no signal | 0/3
N33W Q96V | no signal | 0/3
A32M G49Q F95P | no signal | 0/3
D25M S89A G94R | no signal | 0/3
R28V K50F N51M | no signal | 0/3
N33Y R90F D91R | no signal | 0/3
S88D R90D F98Q | no signal | 0/3

Repeated from above, the 5 best binders with a signal in all replicates:

{"changes": "Y30Q G94I F98H", "log10 Kd (nM), mean": "0.92", "detected": "3/3"}
{"changes": "E23C R28V P54T", "log10 Kd (nM), mean": "0.94", "detected": "3/3"}
{"changes": "Y30S S93R", "log10 Kd (nM), mean": "1.23", "detected": "3/3"}
{"changes": "Y31N N52W S92I", "log10 Kd (nM), mean": "1.44", "detected": "3/3"}
{"changes": "K50E S89E", "log10 Kd (nM), mean": "1.50", "detected": "3/3"}

Reference: Engelhart et al. 2022, doi:10.1038/s41597-022-01779-4. File: FLAb, binding data.